# Tested on: 12 predominant HLA II molecules
# Assay: Binding to the 12 predominant HLA II molecules, summary
# Set-up: species or system human
structure (smiles),measurement,setting,value
"CC(C)C[C@H](NC(=O)[C@H](Cc1ccccc1)NC(=O)[C@@H]1CCCN1C(=O)[C@H](Cc1c[nH]c2ccccc12)NC(=O)[C@H](CC(N)=O)NC(=O)[C@H](CCCCN)NC(=O)[C@H](Cc1ccccc1)NC(=O)[C@@H](NC(=O)[C@@H](N)CO)[C@@H](C)O)C(=O)N[C@@H](CCC(=O)O)C(=O)NCC(=O)N[C@@H](CS)C(=O)N[C@@H](C)C(=O)N[C@@H](CS)C(=O)N[C@H](C(=O)O)[C@@H](C)O [peptide 20-34, S T F K N W P F L E G C A C T]",Affinity for HLA II molecules (class words),,good affinity for at least four HLA II molecules
same,No. of molecules fixed,number of the 12 predominant HLA II molecules bound (IC50 < 1000 nM),4

# Source: patent US9687539B2, “CD4+ T survivin epitopes and uses thereof” (Commissariat a I'Energie Atomique, priority 2005, dated 2017)
